Measured values reported in patent US20150159169A1, “Plants Tolerant to HPPD Inhibitor Herbicides” (Bayer CropScience AG, priority 2009, published 2015).

Protein sequences, listed by entry. Tags and fused reporters are not part of them. Lines headed by an entry give the natural chain unless they say otherwise; changes in a name come on top.
UniProt A9DQF2, entry or part of it: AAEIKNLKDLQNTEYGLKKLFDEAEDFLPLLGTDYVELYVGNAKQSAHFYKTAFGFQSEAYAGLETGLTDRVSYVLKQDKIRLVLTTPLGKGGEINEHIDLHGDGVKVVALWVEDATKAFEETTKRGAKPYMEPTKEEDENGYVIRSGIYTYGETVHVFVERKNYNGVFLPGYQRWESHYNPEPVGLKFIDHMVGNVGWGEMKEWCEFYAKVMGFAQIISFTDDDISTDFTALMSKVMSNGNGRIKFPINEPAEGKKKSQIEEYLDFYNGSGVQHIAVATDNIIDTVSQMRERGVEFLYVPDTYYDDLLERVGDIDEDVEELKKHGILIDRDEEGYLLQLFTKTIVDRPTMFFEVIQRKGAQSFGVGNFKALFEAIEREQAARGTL

What was measured:
[1] = target: Kordia algicida HPPD "SEQ ID No. 5" (FMP27e) (Kordia algicida, UniProt A9DQF2); assay: HPLC assay of HPPD in vitro kinetic properties; assay type: biochemical
Protocol: Km, Vmax, and kcat values for different HPPD enzyme preparations and Ki, K1=Kon, and K−1=Koff for different HPPD inhibitors were determined using a HPLC assay for measurements of HPPD activity. […] All assays were started by the addition of HPPD enzyme to the assay mixture and stopped at a series of times between 0 and 240 s by addition of 200 μl of the reaction mixture to reaction assay tubes containing 20 μl 10% perchloric acid. Precipitated protein was pelleted by a 5 minute centrifugation at 10,000 g.
For Km and Vmax value determinations the initial rates of the HPPD reaction at different substrate concentrations were determined from plots of HGA formed versus time and fitted to the Michaelis-Menten equation for unireactant enzymes using the ID Business Solutions Ltd. (idbs.com) XLfit software suite.

[2] = target: Kordia algicida HPPD "SEQ ID No. 5" (Kordia algicida, UniProt A9DQF2); assay: biochemical; settings: for inhibition at 5 µM: read-out: percentage of inhibition compared to the activity in absence of the inhibitor

| SMILES | kon ([1]; read-out: k1 (=Kon)) [M⁻¹ s⁻¹] | koff ([1]; read-out: k−1 (=Koff)) [s⁻¹] | inhibition at 5 µM [2] [%] | IC50 [2] [nM] |
| --- | --- | --- | --- | --- |
| CS(=O)(=O)c1cc(C(F)(F)F)ccc1C(=O)C(C#N)C(=O)C1CC1 (centres unmarked) [Diketonitrile, 2-cyano-3-cyclopropyl-1-(2-methylsulphonyl-4-trifluoromethylphenyl)-propane-1,3-dione] | 1100 | 0.017 |  |  |
| CS(=O)(=O)c1ccc(C(=O)C2C(=O)CCCC2=O)c([N+](=O)[O-])c1 [Mesotrione, 2-[4-(methylsulfonyl)-2-nitrobenzoyl]-1,3-cyclohexanedione] |  |  | 85 |  |
| CS(=O)(=O)c1ccc(C(=O)C2C(=O)CCCC2=O)c(Cl)c1 [Sulcotrione, 2-[2-chloro-4-(methylsulfonyl)benzoyl]-1,3-cyclohexanedione] |  |  | 85 | < 2510 |
